# Patent US20090105200A1, “Combination therapy” (priority 2007, published 2009)
# Test system: NF-κB
# Assay type: cell-based, human
# Protocol: Methods. […] Immunoblot analysis (30 μg of protein per condition) was performed to detect cleavage of caspase-12 and PARP, levels of IκB c, phospho-IκBα, p65, p100/p52, as well as expression of NF-κB downstream anti-apoptotic proteins. Parallel studies were performed in two established CLL cell lines (JVM-3 and MEC-2, DSMZ).
smiles,measurement,value
"CC(C)C[C@H](NC(=O)[C@H](Cc1ccccc1)NC(=O)c1cnccn1)B(O)O [bortezomib, [(1R)-3-methyl-1-[[(2S)-1-oxo-3-phenyl-2-[(pyrazinylcarbonyl)amino]propyl]amino]butyl]boronic acid]",romidepsin-induced NF-κB activation,abrogated
